Experimental data taken from patent publication US9757471B2, “Protozoan variant-specific surface proteins (VSP) as carriers for oral drug delivery” (priority 2012, dated 2017).

Format: physicochemical
Conditions: in the presence of VSP; no degradation after incubation at pH 2
Description: IL-2 alone or mixed with VSP carrier was incubated at different pHs or with different concentration of proteolytic enzymes such as trypsin. The presence of IL-2 after the pH and proteolyitc enzyme challenges was detected using Coomassie stain of SDS-PAGE gels.
For example, none of the two interleukins tested digested by trypsin, even at 1:10 ratios, or degrade after incubation at pH 2. This is consistent with the observation that VSP carriers can protect other bioactive peptides, such as LANTUS™ insulin. Accordingly, the combination of VSPs with interleukins, e.g., IL-2 or IL-10, could facilitate their intestinal absorption and their systemic effects.

IL-2: human interleukin-2, a cytokine
resistance to low pH: resistant
